Literature values in patent US7179939B2, “Sodium ferric gluconate complexes and method of manufacture thereof” (priority 2004, dated 2007).

Key:
[1] = patients receiving iron dextran
[2] = study comparing iron dextran with sodium ferric gluconate

occurrence of allergic episodes [2]: 8.7 allergic episodes per million doses
Substance: iron dextran
significant adverse effects, share of patients [1]: approximately 26 % of patients
